Values quoted from earlier work as cited in patent publication US20150057375A1, “USE OF IMPROVED N-ALKYL PYRROLIDONE SOLVENT” (TAMINCO, priority 2012, published 2015).

Details: EU classification / screening test; cited from earlier work

In the case of `CCN1CCCC1=O` [NEP, N-ethyl-2-pyrrolidone], the Reprotoxicity is listed as “listed as reprotoxic”.
